Experimental data as given in PubChem BioAssay AID652039 (The Scripps Research Institute Molecular Screening Center, 2013).
The list shows a part of the results, in another mix than the full data. Activity calls are given as the source filed them.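 How the source made its calls: active means activation above the mean of all tested compounds plus 3 SD, computed per campaign excluding outliers beyond control limits (cut at about 13% in these data); inactive means the rest.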

Sequences of proteins named here, by UniProt entry; tags and fusion partners are left off. A change or cut given only in a name is not applied to a line headed by its entry.
UniProt P49862: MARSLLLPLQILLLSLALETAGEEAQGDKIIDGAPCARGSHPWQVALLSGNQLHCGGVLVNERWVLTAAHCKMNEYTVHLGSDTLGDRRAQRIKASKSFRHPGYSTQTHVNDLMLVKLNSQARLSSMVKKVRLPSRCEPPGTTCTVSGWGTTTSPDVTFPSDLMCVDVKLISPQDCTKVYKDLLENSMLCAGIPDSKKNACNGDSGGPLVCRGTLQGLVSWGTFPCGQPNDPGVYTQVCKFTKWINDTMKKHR

target: Kallikrein-7 (Homo sapiens) (UniProt P49862); assay: activation of human kallikrein-7 proenzyme – biochemical, fluorescence intensity, primary screen (AID 652039); conditions: purified proKLK7, EDANS-DABCYL substrate fluorescence; at 7 µM; active compounds read high; 100% is mature enzyme control, 0% vehicle

Row | SMILES | activation
1 | Oc1ccccc1CNc1ccccn1 | inactive: 0.68%
2 | O=C(NC(Sc1ccncn1)C(Cl)(Cl)Cl)c1ccccc1 (stereo unspecified) | inactive: -0.12%
3 | CC(C)CC(=O)NC(Sc1ccc(Cl)cc1)C(Cl)(Cl)Cl (stereo unspecified) | inactive: 0.14%
4 | Nc1cc(N)c2nonc2c1[N+](=O)[O-] | inactive: 0.14%
5 | CN(C(=O)Cc1ccc(Cl)c(Cl)c1)[C@H]1CCCC[C@H]1N1CCCC1 | inactive: -0.89%
6 | Cc1ccc(N/C(=N/P(=O)(N2CCOCC2)N2CCOCC2)N2CCOCC2)cc1 | inactive: 0.32%
7 | NC(=O)c1cc([N+](=O)[O-])cc([N+](=O)[O-])c1N | inactive: 0.2%
8 | Clc1ccc(Cl)c(NC2=NCC(CBr)S2)c1 (stereo unspecified) | inactive: 0.41%
9 | CN1CCCC(OC(=O)C(c2ccccc2)c2ccccc2)C1 (stereo unspecified) | inactive: 0.16%
10 | COc1ccccc1OP(=O)(Nc1ccc(C)cn1)Oc1ccccc1OC | inactive: -0.21%
11 | Cc1ccc(OP(=O)(Nc2nccs2)Oc2ccc(C)cc2)cc1 | inactive: 0.14%
12 | Nc1cccc2ccc([As](=O)(O)O)cc12 | active: 24.6%
13 | CN(C(=O)Cc1ccccc1)C1CC[C@@]2(CCCO2)C[C@@H]1N1CCCC1 (stereo partly specified) | inactive: -0.59%
14 | CCN(N=Nc1nonc1N)c1nonc1N | inactive: 0.23%
15 | CN(C)P(=O)(N(C)C)n1c(Nc2ccccc2)nnc1-c1ccccc1 | inactive: 0.99%
16 | O=P(Nc1nc2ccc(Cl)cc2s1)(c1ccccc1)c1ccccc1 | inactive: -0.34%
17 | O=C(O)c1ccccc1[As](=O)(O)O | inactive: -0.55%
18 | CC(=O)Nc1ccc([As](=O)(O)O)cc1 | inactive: -0.08%
19 | CCCC1OP(N)(=O)OCC1CC (stereo unspecified) | inactive: -0.14%
20 | CCn1c(=O)n(C2CCN(CC3CCCCCCC3)C[C@H]2CO)c2ccccc21 (stereo partly specified) | inactive: 0.46%
21 | CCOP(=O)(Nc1ccccc1)OCC | inactive: -0.24%
22 | Cc1cc(SC(NC(=O)c2ccc(F)cc2)C(Cl)(Cl)Cl)ncn1 (stereo unspecified) | inactive: -0.46%
23 | CN(C(=O)Cc1ccc(Cl)c(Cl)c1)[C@H]1CCCC[C@@H]1N1CCCC1 | inactive: 0.02%
24 | Cc1ccc(NP(=O)(Oc2ccccc2F)Oc2ccccc2F)nc1 | inactive: 0.88%
25 | O=[N+]([O-])c1ncn(CCn2ncnc2[N+](=O)[O-])n1 | inactive: 0.35%
26 | CC(C)(C)C(=O)NC(Sc1ccncn1)C(Cl)(Cl)Cl (stereo unspecified) | inactive: 0.46%

Row | SMILES | activation
27 | O=C(O)CNc1ccc([As](=O)(O)O)cc1 | inactive: -0.46%
28 | O=[N+]([O-])c1cccc(NC2=NCC(CBr)S2)c1 (stereo unspecified) | inactive: -0.45%
29 | COC(=O)C1(C)COP(=O)(Nc2ccccc2)OC1 (stereo unspecified) | inactive: -0.33%
30 | O=P1(N(CCCl)CCCl)OCCCS1 (stereo unspecified) | inactive: -0.03%
31 | O=C(Nc1cc([As](=O)(O)O)ccc1O)c1ccccc1 | inactive: -0.49%
32 | CCN(/C(=N/P(=O)(N1CCOCC1)N1CCOCC1)N1CCOCC1)c1ccc(OC)cc1 | inactive: -0.32%
33 | Nc1ccc([As](=O)(O)c2ccc(N)cc2)cc1 | inactive: 0.07%
34 | C[N+]1=C2C=CC=CC=C2SC12C([N+](=O)[O-])=CC([N+](=O)[O-])=C[C-]2[N+](=O)[O-] (stereo unspecified) | inactive: 0.03%
35 | c1cc(-c2nn[nH]n2)ccc1-c1nn[nH]n1 | inactive: -0.6%
36 | CC1CCN(C(=O)Oc2c(Cl)cc(Cl)c3cccnc23)CC1 | inactive: -0.14%
37 | CC(C)=N/N=C(\N)N[N+](=O)[O-] | inactive: 0.23%
38 | CC(C)c1nc(Nc2ccccc2)n(P(=O)(N(C)C)N(C)C)n1 | inactive: -0.21%
39 | CN(C)C(=O)OCCc1n(C)cc[n+]1C | inactive: -0.06%
40 | COc1ccc(C2=NCC(CBr)S2)cc1 (stereo unspecified) | inactive: 0.04%
41 | Cc1ccc(NP(=O)(Oc2ccccc2)Oc2ccccc2)nc1 | inactive: 1.36%
42 | O=[N+]([O-])c1cc([N+](=O)[O-])c(CCNc2ccccc2)c([N+](=O)[O-])c1 | inactive: -0.14%
43 | CCc1nc2c(n1)c1c(non1O)c1c2no[n+]1[O-] | inactive: -0.1%
44 | CC(=O)N1C2C3N(C(C)=O)C1C1N(C(C)=O)C(C(N1C(C)=O)N3C(C)=O)N2C(C)=O | inactive: -0.15%
45 | O=[N+]([O-])c1cccc2n[nH]nc12 | inactive: -0.44%
46 | O=P(Nc1nccs1)(c1ccccc1)c1ccccc1 | inactive: -0.43%
47 | CC(C)C(=O)NC(Sc1ccccc1)C(Cl)(Cl)Cl (stereo unspecified) | inactive: 0.25%
48 | c1nnnn1CCn1cnnn1 | inactive: 0%
49 | O=[As](O)(c1ccccc1)c1ccc(O)cc1 | inactive: 0.22%
50 | O=[N+]([O-])c1ncn(CCn2cnc([N+](=O)[O-])n2)n1 | inactive: 0.12%
51 | CC(=O)NC(SC(=S)N(C)C)C(Cl)(Cl)Cl (stereo unspecified) | inactive: -0.07%
52 | O=C(OC1CN2CCC1CC2)c1cccc(Cl)c1 (stereo unspecified) | inactive: 0.66%

Row | SMILES | activation
53 | C/C(N)=N\P(=O)(OCc1ccccc1)OCc1ccccc1 | inactive: 0.35%
54 | Nc1ccc([As](=O)(O)c2ccc([N+](=O)[O-])cc2)cc1 | inactive: 0.32%
55 | C(Cc1nn[nH]n1)Cc1nn[nH]n1 | inactive: 0.5%
56 | CN(C)C1(CNC(=O)c2ccc(Cl)c(S(N)(=O)=O)c2)CCCCC1 | inactive: 0.74%
57 | O=P(Nc1ccccn1)(c1ccc(Br)cc1)c1ccc(Br)cc1 | inactive: -0.32%
58 | Nc1ccc(CCCCOc2ccccc2)cc1 | inactive: -0.57%
59 | COc1ccc(N)c([N+](=O)[O-])c1[N+](=O)[O-] | inactive: -0.01%
60 | O=P(Nc1nc2ccccc2s1)(c1ccccc1)c1ccccc1 | inactive: -0.1%
61 | C[C@H]1OP(=O)(Oc2ccccc2)[C@H](O)[C@H](O)[C@H]1N=[N+]=[N-] (stereo partly specified) | inactive: 0.04%
62 | O=C(OC1CN2CCC1CC2)c1ccccc1 (stereo unspecified) | inactive: 0.44%
63 | CCC(=O)N1C2C3N(C(=O)CC)C1C1N(C(=O)CC)C(C(N1C(=O)CC)N3C(=O)CC)N2C(=O)CC | inactive: 0.23%
64 | COC(=O)c1cc2c(s1)N=C(c1ccccc1)N(C)P2(=O)N1CCOCC1 (stereo unspecified) | inactive: -0.47%
65 | Cc1ccc(OP(=O)(Nc2ccccn2)Oc2ccc(C)cc2)cc1 | inactive: -0.12%
66 | CC(=O)NC(SC(=S)N(CC(C)C)CC(C)C)C(Cl)(Cl)Cl (stereo unspecified) | inactive: -0.63%
67 | Cc1ccccc1OP(=O)(Nc1ccccn1)Oc1ccccc1C | inactive: -0.39%
68 | CC(NC(=O)COC(=O)C(O)(c1ccccc1)c1ccccc1)c1ccccc1 (stereo unspecified) | inactive: 0.05%
69 | CN(C)C(=O)Oc1noc2ccccc12 | inactive: 0.32%
70 | O=c1c2cc([N+](=O)[O-])ccc2[nH]c2c([N+](=O)[O-])cc([N+](=O)[O-])cc12 | inactive: -0.94%
71 | c1ccc(-c2nn[nH]n2)c(-c2nn[nH]n2)c1 | inactive: 0.1%
72 | Cc1ccc(NP(=O)(Oc2cccc(C)c2)Oc2cccc(C)c2)nc1 | inactive: -0.24%
73 | O=C(NC1CCS(=O)(=O)C1)NP(=S)(Oc1ccccc1)Oc1ccccc1 (stereo unspecified) | inactive: 0.42%
74 | CCNC(=S)/N=C(\N)N[N+](=O)[O-] | inactive: -0.31%
75 | O=P1(N(CCCl)CCCl)OCCC2CCCCN21 (stereo unspecified) | inactive: -0.12%
76 | Cc1ccccc1CN(C)C(=O)COC(=O)C(O)(c1ccccc1)c1ccccc1 | inactive: 0.06%
77 | C[C@@H]1C=CCP(=O)(Oc2ccccc2)O1 (stereo partly specified) | inactive: -0.18%
78 | C[C@H]1OP(=O)(Oc2ccccc2)C[C@@H]2O[C@@H]21 (stereo partly specified) | inactive: -0.55%

Row | SMILES | activation
79 | N#C/C(=C\c1ccc(N(CCBr)CCBr)cc1)C(N)=O | inactive: 1%
80 | CC(=O)c1ccc(N2CC2c2ccncc2)cc1 (stereo unspecified) | inactive: -0.36%
81 | COC(=O)C1(C)COP(=O)(NCc2ccccc2)OC1 (stereo unspecified) | inactive: -0.3%
82 | CC(=O)Nc1ccc([As](=O)(O)O)c(O)c1 | inactive: 0.65%
83 | CC(=O)Nc1ccc(Oc2c([N+](=O)[O-])cc([N+](=O)[O-])cc2[N+](=O)[O-])cc1 | inactive: -0.14%
84 | O=P1(Nc2nc3ccc(Cl)cc3s2)COc2ccccc2O1 (stereo unspecified) | inactive: 0.37%
85 | CCOc1ccc(C2=NCC(CBr)S2)cc1 (stereo unspecified) | inactive: -0.74%
86 | CC(C)(C)C(=O)NC(Sc1ccccc1)C(Cl)(Cl)Cl (stereo unspecified) | inactive: 0.09%
87 | CCc1cc(O)c([N+](=O)[O-])c(C)c1[N+](=O)[O-] | inactive: -0.56%
88 | Nc1cccc2c([As](=O)(O)O)cccc12 | inactive: -22.4%
89 | Cc1ccc(NCCc2c([N+](=O)[O-])cc([N+](=O)[O-])cc2[N+](=O)[O-])cc1 | inactive: -0.32%
90 | CCCOP(=S)(Nc1nc(N)cc(=O)[nH]1)OCCC | inactive: -0.26%
91 | COc1cc(C2NCCC3(OCCO3)C2(C)C)cc(OC)c1OC (stereo unspecified) | inactive: 0.13%
92 | CCOP(=O)(Nc1cccc2ccccc12)OCC | inactive: 0.03%
93 | O=C(OC1CN2CCC1CC2)c1ccc(Cl)cc1 (stereo unspecified) | inactive: -0.67%
94 | COc1cc(C(=O)NCC2(N3CCOCC3)CCCCC2)cc(Cl)c1OC(C)C | inactive: 0.85%
95 | O=[As](O)(O)c1cccnc1 | inactive: 0.72%
96 | CS(=O)(=O)c1ccc(Cl)c(NC(=O)COC(=O)C(O)(c2ccccc2)c2ccccc2)c1 | inactive: -0.51%
97 | O=[As](O)(c1cccc(O)c1)c1cccc(O)c1 | inactive: 0.5%
98 | Cc1cccc(OCC(=O)OC2CN3CCC2CC3)c1 (stereo unspecified) | inactive: 0.57%
99 | NC(=O)Nc1ccc([As](=O)(O)O)cc1 | inactive: -0.85%
100 | N#CCCN(C(=O)COC(=O)C(O)(c1ccccc1)c1ccccc1)c1ccc(F)cc1 | inactive: -0.27%
101 | CN(C(=O)Cc1ccccc1)[C@@H]1CC[C@]2(CCCO2)C[C@H]1N1CCCC1 | inactive: 0.24%
